From PubChem BioAssay AID504692 (The Scripps Research Institute Molecular Screening Center, 2011)
Only a part is listed here, and it is no random draw. Some salts and complexes are drawn in separate pieces, as the source files them; their charges need not balance. Active and inactive are the calls of the source. Rule as the data show it: active = activation mostly above about 9.5% (no sharp cut-off); inactive = mostly below about 7.6%.

Protein sequences, listed by entry. Tags and fused reporters are not part of them.
UniProt P47898, whole entry: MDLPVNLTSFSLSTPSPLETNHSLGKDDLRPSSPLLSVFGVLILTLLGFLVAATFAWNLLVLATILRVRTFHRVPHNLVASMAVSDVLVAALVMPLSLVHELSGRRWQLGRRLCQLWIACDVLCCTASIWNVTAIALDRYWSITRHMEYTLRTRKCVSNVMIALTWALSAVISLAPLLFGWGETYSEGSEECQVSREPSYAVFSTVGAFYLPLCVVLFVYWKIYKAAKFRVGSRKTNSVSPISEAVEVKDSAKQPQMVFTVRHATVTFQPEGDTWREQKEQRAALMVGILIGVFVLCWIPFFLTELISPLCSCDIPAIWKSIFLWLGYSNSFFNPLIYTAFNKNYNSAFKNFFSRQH

Target: 5-hydroxytryptamine receptor 5A (Homo sapiens) (UniProt P47898)
Experiment: activation of human 5-HT5A receptor – cell-based, luminescence, full-deck HTS, counter-screen for OPRM1-OPRD1 heterodimer agonist project, primary screen (AID 504692);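 also: 0% = cells with vehicle only and 100% = reference agonist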
Details: HTR5A agonist assay, at 9.3 µM, active compounds read high

Compound | activation
CP(=O)(OC12CC3CC(CC(C3)C1)C2)OC12CC3CC(CC(C3)C1)C2 | inactive: -2.61%
CCOC(=O)c1ccc(NP(C)(=O)Oc2ccc(Cl)cc2)cc1 (stereo not given) | inactive: 2.53%
CCCCN1CCC(C#N)(Nc2ccccc2)CC1 | inactive: -3.37%
CN(C)C(=O)c1c([N+](=O)[O-])cc([N+](=O)[O-])cc1[N+](=O)[O-] | inactive: 0.97%
CP(=O)(Nc1ccc(Cl)cc1)Oc1ccc(F)cc1 (stereo not given) | inactive: 4.97%
COc1ccccc1OP(C)(=O)Nc1ccccc1Br (stereo not given) | inactive: -2.73%
CC(C)(C)c1ccc(OP(C)(=O)O)cc1 | inactive: -2.06%
CP(=O)(Oc1ccccc1)N1CCOC1=O (stereo not given) | inactive: -2.26%
CCc1ccc(OP(C)(=O)Nc2cccnc2)cc1 (stereo not given) | inactive: 0.76%
COc1ccccc1OP(C)(=O)Nc1c(C)n(C)n(-c2ccccc2)c1=O (stereo not given) | inactive: 3.55%
O=C(OCCCN1CCCC1)C(O)(c1ccccc1)C1CCCCC1 (stereo not given) | inactive: -1.92%
CCN(CC)CC(O)COC(=O)C(O)(c1ccccc1)C1CCCCC1 (stereo not given) | inactive: 9.06%
COc1ccc(OP(C)(=O)Nc2ccc(Br)cc2)cc1 (stereo not given) | inactive: 1.78%
CCc1ccc(OP(C)(=O)O)cc1 | inactive: -0.98%
CP(=O)(Nc1ccccn1)Oc1ccccc1 (stereo not given) | inactive: 2.21%
COc1ccccc1OP(C)(=O)Nc1ccc(C)cc1C (stereo not given) | inactive: 0.94%
Cc1c(NP(C)(=O)Oc2ccc(C(C)C)cc2)c(=O)n(-c2ccccc2)n1C (stereo not given) | inactive: 0.5%
O=[N+]([O-])c1cc([N+](=O)[O-])c(Nc2ccccn2)c([N+](=O)[O-])c1 | inactive: -12%
CN(C)CCOC(=O)C(O)(c1ccccc1)C1CCCC1 (stereo not given) | inactive: -0.33%
COc1ccc(OP(C)(=O)Nc2ccccn2)cc1 (stereo not given) | inactive: -1.59%
COc1ccccc1OP(C)(=O)Nc1ccc(Br)cc1 (stereo not given) | inactive: 6.43%
CCCCCCCCCCCCCCCC1C[N+](C)(C)CCOP(C)(=O)O1 (stereo not given) | inactive: -4.01%
CP(=O)(Nc1ccc(Cl)cc1Cl)Oc1ccccc1 (stereo not given) | inactive: -2.04%
CP(=O)(OCCOc1ccccc1)OCCOc1ccccc1 | inactive: 0.78%
COc1ccc(OP(C)(=O)Nc2ccccc2Br)cc1 (stereo not given) | inactive: -0.28%

Compound | activation
COc1ccccc1OP(C)(=O)Nc1ccc(C)c(C)c1 (stereo not given) | inactive: 2%
O=C1C(O)=C([N+](=O)[O-])C(=O)C(O)=C1[N+](=O)[O-] | inactive: 2.38%
Cc1cc(C)cc(OP(C)(=O)Nc2cccc(C(F)(F)F)c2)c1 (stereo not given) | inactive: 2.41%
CCCCCOc1ccc(NP(C)(=O)Oc2ccc(Cl)cc2Cl)cc1 (stereo not given) | inactive: -4.42%
O=[N+]([O-])c1cc([N+](=O)[O-])c(OC2CCCCC2O)c([N+](=O)[O-])c1 (stereo not given) | inactive: 0.41%
CP(=O)(Nc1ccccc1)Oc1ccc(F)cc1 (stereo not given) | inactive: -1.54%
CCN(CC)CCCOC(=O)C(O)(c1ccccc1)C1CCCCC1 (stereo not given) | inactive: -1.96%
Cc1c([N+](=O)[O-])cc([N+](=O)[O-])c(Br)c1[N+](=O)[O-] | inactive: 3.43%
COc1ccc(OP(C)(=O)Nc2ccc(SC(F)(F)F)cc2)cc1 (stereo not given) | inactive: 0.96%
CCOC(=O)c1ccc(NP(C)(=O)Oc2ccc(F)cc2)cc1 (stereo not given) | inactive: 0.33%
COc1ccc2c(c1O)-c1c(O)c(OC)cc3c1[C@H](C2)[N+](C)(C)CC3.O=[N+]([O-])c1cc([N+](=O)[O-])c([O-])c([N+](=O)[O-])c1[O-] | inactive: 2.92%
O=C(OCCN1CCN(CCOCc2ccccc2)CC1)C(O)(c1ccccc1)c1ccccc1 | inactive: -0.69%
O=C(OC1CN2CCC1CC2)c1ccc([N+](=O)[O-])cc1 (stereo not given) | inactive: 3.7%
CC(C)c1ccc(OP(C)(=O)Nc2ccc(SC(F)(F)F)cc2)cc1 (stereo not given) | inactive: 5.05%
CP(=O)(Nc1ccccc1F)Oc1ccccc1 (stereo not given) | inactive: -7.85%
Cc1ccccc1NP(C)(=O)Nc1ccccc1C | inactive: -2.27%
CP(=O)(Nc1ccc2c(c1)OCCO2)Oc1ccccc1 (stereo not given) | inactive: 0.38%
CCOP(C)(=S)SCC(=O)NC(C)(CC)C(=O)O (stereo not given) | inactive: 0.83%
CP(=O)(Nc1ccc(SC(F)(F)F)cc1)Oc1ccc(F)cc1 (stereo not given) | inactive: 0.56%
Cc1c(C(c2ccc3c(c2)OCO3)c2c(C)n(C)n(-c3ccccc3)c2=O)c(=O)n(-c2ccccc2)n1C.O=[N+]([O-])c1cc([N+](=O)[O-])c(O)c([N+](=O)[O-])c1 | inactive: -1.03%
Cc1cc(-c2cccc3ccccc23)c(C)cn1.O=[N+]([O-])c1cc([N+](=O)[O-])c(O)c([N+](=O)[O-])c1 | inactive: 2.37%
O=[N+]([O-])c1cc([N+](=O)[O-])c(NCC2CCS(=O)(=O)C2)c([N+](=O)[O-])c1 (stereo not given) | inactive: -0.33%
O=[N+]([O-])c1ccc(OP2(=O)COCCO2)cc1 (stereo not given) | inactive: -2.17%
COc1ccc(NP(C)(=O)Oc2ccccc2OC)cc1 (stereo not given) | inactive: 0.49%
CN(C)CCOC(=O)C(O)(c1ccccc1)C1CCCCC1 (stereo not given) | inactive: -2.11%

Compound | activation
CN(C)C1(CNC(=O)c2ccc(Cl)c(S(N)(=O)=O)c2)CCCCC1 | inactive: 5.18%
COc1ccc(OP(C)(=O)Nc2cccc(Br)c2)cc1 (stereo not given) | inactive: 1.39%
CCCOc1ccc(NP(C)(=O)Oc2ccc(Cl)cc2)cc1 (stereo not given) | inactive: 0.57%
CP(=O)(Nc1ccc(SC(F)(F)F)cc1)Oc1ccccc1 (stereo not given) | inactive: 4.96%
CN1CCCCC1COC(=O)C1(O)c2ccccc2CCc2ccccc21 (stereo not given) | inactive: 5.05%
COc1ccccc1OP(C)(=O)Nc1c(C)cccc1C (stereo not given) | inactive: 3.24%
CC1=C2N=C(C=C3N=C(C(C)=C4[N-][C@@](C)([C@@H]5N=C1[C@](C)(CCC(=O)NC[C@@H](C)OP(=O)([O-])O[C@H]1[C@@H](O)[C@@H](n6cnc7cc(C)c(C)cc76)O[C@@H]1CO)[C@H]5CC(N)=O)[C@@](C)(CC(N)=O)[C@@H]4CCC(N)=O)[C@@](C)(CC(N)=O)[C@@H]3CCC(N)=O)C(C)(C)[C@@H]2CCC(N)=O.[C-]#N.[Co+3] | inactive: -6.06%
CN(C)C1(CNC(=O)c2ccc(S(C)(=O)=O)cc2)CCCCC1 | inactive: -2.88%
O=[N+]([O-])c1cc([N+](=O)[O-])c(Nc2nnnn2CCO)c([N+](=O)[O-])c1 | inactive: -5.58%
CCOC(=O)C(CC)C1=NC(C)(C)Cc2ccccc21.O=[N+]([O-])c1cc([N+](=O)[O-])c(O)c([N+](=O)[O-])c1 (stereo not given) | inactive: -3.06%
Cc1nc2ccc3ccccc3c2s1.O=[N+]([O-])c1cc([N+](=O)[O-])c(O)c([N+](=O)[O-])c1 | inactive: -6.45%
O=[N+]([O-])c1cc([N+](=O)[O-])c(-c2cnn(-c3ccccc3)c2)c([N+](=O)[O-])c1 | inactive: 2.1%
O=[N+]([O-])c1cc([N+](=O)[O-])c(-n2nnc3ccccc32)c([N+](=O)[O-])c1 | inactive: -17.9%
Cc1cc(C)cc(OP(C)(=O)Nc2ccccn2)c1 (stereo not given) | inactive: -0.78%
CP(=O)(Nc1cccc(Br)c1)Oc1ccccc1 (stereo not given) | inactive: 4.3%
Cc1ccc(C)c(NP(C)(=O)Oc2ccccc2)c1 (stereo not given) | inactive: 0.82%
Cc1cc(C)cc(OP(C)(=O)Nc2ccc(C)cc2C)c1 (stereo not given) | inactive: -4.25%
CCOC(=O)c1ccc(NP(C)(=O)Oc2cc(C)cc(C)c2)cc1 (stereo not given) | inactive: -5.86%
COc1cc(C(=O)NCC2(N3CCOCC3)CCCCC2)cc(Cl)c1OC(C)C | inactive: -0.83%
COc1ccccc1OP(C)(=O)Nc1cccc(Br)c1 (stereo not given) | inactive: 1.55%
CC1=NCCc2c1[nH]c1ccccc21.O=[N+]([O-])c1cc([N+](=O)[O-])c(O)c([N+](=O)[O-])c1 | inactive: -2.72%
O=C(O)c1cccc(Nc2c([N+](=O)[O-])cc([N+](=O)[O-])cc2[N+](=O)[O-])c1 | inactive: -11.8%
COc1ccccc1OP(C)(=O)Nc1cc(Cl)ccc1C (stereo not given) | inactive: -1.94%
COc1ccc(OP(C)(=O)Nc2cccc(F)c2)cc1 (stereo not given) | inactive: 4.55%
Cc1cc(C)cc(OP(C)(N)=O)c1 (stereo not given) | inactive: 6.02%

Compound | activation
CCOC(=O)c1ccc(NP(C)(=O)Oc2ccccc2)cc1 (stereo not given) | inactive: 6.07%
COc1ccccc1OP(C)(=O)Nc1ccc(C)cc1 (stereo not given) | inactive: -1.72%
Cc1ccc(NP(C)(=O)Oc2ccccc2)c(C)c1 (stereo not given) | active: 17.1%
CC(C)(C)c1ccc(OP(C)(=O)Nc2ccc(SC(F)(F)F)cc2)cc1 (stereo not given) | inactive: 0.3%
Cc1cccc(C)c1OP(C)(N)=O (stereo not given) | inactive: -0.19%
O=[N+]([O-])c1ccc2c(c1)C=Nc1ccccc1O2 | inactive: -0.3%
O=[N+]([O-])c1cc([N+](=O)[O-])c(Nc2cccnc2)c([N+](=O)[O-])c1 | inactive: -15.3%
COc1cc(C(=O)NCC2(N3CCOCC3)CCCCC2)ccc1OCC(C)C | inactive: -3.53%
CCN(CC)CCn1c(NCc2ccc(OC)cc2)nc2ccccc21 | inactive: -0.48%
Cc1ccc(S(=O)(=O)NCCC(=O)N2CCN(C/C=C/c3ccccc3)CC2)cc1 | inactive: 8.71%
O=C(OC1CN2CCC1CC2)C12CC3CC(CC(C3)C1)C2 (stereo not given) | active: 9.81%
CCN(CC)CCCOC(=O)C(O)(c1ccccc1)c1ccccc1 | inactive: 2.27%
CP(=O)(Nc1ccccn1)Oc1ccc(Cl)cc1 (stereo not given) | inactive: -1.17%
CCOP(C)(=S)SCC(=O)NC(C)C(=O)O (stereo not given) | inactive: 4.84%
CCOC(=O)c1ccc(NP(C)(=O)Oc2ccc(OC)cc2)cc1 (stereo not given) | inactive: -4.5%
CP(=O)(NC(=O)Nc1ccccc1)Oc1ccccc1 (stereo not given) | inactive: -8.38%
CCc1ccc(OP(C)(=O)N2CCN(c3ccc([N+](=O)[O-])cc3)CC2)cc1 (stereo not given) | inactive: 0.47%
Cc1cc(C)cc(OP(C)(=O)Nc2ccc(SC(F)(F)F)cc2)c1 (stereo not given) | inactive: 3.95%
Cc1cccc(C)c1OP(C)(=O)Nc1ccc(SC(F)(F)F)cc1 (stereo not given) | inactive: -0.17%
CP(=O)(Oc1ccccc1)OC(c1ccccc1)C(F)(F)F (stereo not given) | inactive: 3.92%
C=CCC1(Nc2ccccc2)CC(C)N(C)CC1C (stereo not given) | inactive: 0.99%
COc1ccccc1OP(C)(=O)Nc1ccccc1 (stereo not given) | inactive: 1.48%
CP(=O)(Nc1ccccc1Br)Oc1ccccc1 (stereo not given) | inactive: -2.86%
CP(=S)(Nn1cnnc1)Oc1ccccc1 (stereo not given) | inactive: 6.05%
CCCCOc1ccc(C(=O)NCC2(N3CCCCC3)CCCCC2)cc1OC | inactive: 1.79%
